These results are taken from patent US5773414A, “Endothelin antagonists” (Warner-Lambert Company, priority 1997, dated 1998).

The structures appear in SMILES notation.

This assay deals with T1, ETB (Rattus norvegicus, UniProt P21451).
T1 construct: thaw one aliquot of frozen rat cerebellar membranes; from tissue; host or cells: rat cerebellar membranes
T1 sequence (P21451 27-442): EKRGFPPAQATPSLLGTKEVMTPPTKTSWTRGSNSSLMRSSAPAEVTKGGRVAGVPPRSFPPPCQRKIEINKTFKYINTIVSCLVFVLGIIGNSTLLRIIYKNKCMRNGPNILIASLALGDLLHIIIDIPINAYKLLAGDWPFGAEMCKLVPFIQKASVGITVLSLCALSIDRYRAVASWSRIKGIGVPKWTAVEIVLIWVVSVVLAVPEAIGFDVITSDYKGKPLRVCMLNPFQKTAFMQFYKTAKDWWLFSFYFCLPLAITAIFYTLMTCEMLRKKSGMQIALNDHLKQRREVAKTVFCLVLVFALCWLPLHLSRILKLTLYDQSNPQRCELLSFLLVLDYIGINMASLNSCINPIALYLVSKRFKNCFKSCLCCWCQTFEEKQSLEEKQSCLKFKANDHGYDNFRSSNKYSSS
The assay is described as follows: Endothelin Receptor Binding Assay-B (ETB), [125I]-ET-1 binding in rat cerebellar membranes. As to conditions: Table IIa, read-out: Binding Assay IC50 at Receptor Subtypes ETB. The protocol: The tissue is made up of 20 mM tris(hydroxymethyl)aminomethane hydrochloride (Trizma) buffer, 2 mM ethylenediaminetetraacetate, 100 μM phenylmethylsulfonyl fluoride.
First, thaw one aliquot of frozen rat cerebellar membranes (2 mg protein in 0.5 mL). Next, add 0.5 mL membrane aliquot to 4.5 mL cold tissue buffer, polytron at 7,500 revolutions per minute for 10 seconds. Finally, dilute tissue suspension 1/100 (0.1 mL suspension+9.9 mL tissue buffer), polytron again, and place ice.
Mix in 150 μL of tissue to each tube, vortex briefly, then tap to force all liquids to bottom (total assay volume=250 μL). Then place the tubes in a 37° C. water bath for 2 hours.
Add 2.5 mL cold water buffer (50 mM Trizma buffer) to each tube, filter, and then wash tube with additional 2.5 mL wash buffer and add to filter. Finally, wash filters with an additional 2.5 mL of cold wash buffer.
Count filters for radioactivity in gamma counter.

As a reminder, the IC50 is the concentration that inhibits the measured activity by half. As for `CC[C@H](C)[C@H](NC(=O)[C@H](CC(=O)O)NC(=O)[C@H](CC(C)C)NC(=O)[C@@H](Cc1ccc2ccccc2c1)NC(C)=O)C(=O)N[C@H](C(=O)N[C@@H](Cc1c[nH]c2ccccc12)C(=O)O)[C@@H](C)CC` [Example 5, Ac--D-2-Nal--Leu--Asp--Ile--Ile--Trp], the 50% inhibitory concentration (IC50) turned out to be 4 µM.
